Reference: patent publication US11957661B2, “JAK1 pathway inhibitors for the treatment of vitiligo” (Incyte Corporation, priority 2020, dated 2024)

Target: human JAK1 (Homo sapiens, UniProt P23458)
Assay: In vitro JAK kinase assay (HTRF, Example A)
Type: biochemical
Details: 1 mM ATP

SMILES: CN(C)Cc1cc(F)cc(OC2CCN(CC(CC#N)n3cc(-c4ncnc5[nH]ccc45)cn3)CC2)c1 (single isomer, unassigned) [Compound 14, 4-(4-{3-[(dimethylamino)methyl]-5-fluorophenoxy}piperidin-1-yl)-3-[4-(7H-pyrrolo[2,3-d]pyrimidin-4-yl)-1H-pyrazol-1-yl]butanenitrile]
- IC50: < 10 nM
